# What was measured:
# A172 glioblastoma cells = test: Antibody-dependent cellular phagocytosis (ADCP) of A172 cells by U937 cells; type: cell-based, human; settings: tested form: ammonium formate salt
# Procedure: ADCP experiments carried out via a dual channel flow cytometry assay and were performed by measuring the % phagocytosis of A172 human glioblastoma cells by IFN-gamma primed U937 macrophage effector cells each stained with FL-1 and FL-4 dyes respectively giving rise to double positive FL-1 and FL-4 fluorescence shifts accompanying phagocytosis. These assays were performed in the presence and absence of exogenously added anti-DNP antibodies and various concentrations of each ARM-U2 derivative. Control experiments were also performed to confirm that cellular phagocytosis is occurring and is dependent on ARM-U2 binding cell surface uPAR by • 1. Performing out competitions with exogenous uPAR, • 2. Performing out-competitions with 6-ABT-4 which should bind uPAR but not anti-DNP antibodies • 3. Performing ADCP at 4 degrees Celsius where phagocytosis cannot occur and • 4. Amnis microscopic analysis of double positives identified in the ADCP assay to undergo 6-ABT-1 dependent phagocytosis.
# IFNγ-primed U937 cells were stained with DiD dye (final concentration 1.9 μM) for 30 min at 37° C. A172 target cells were prepared by staining adherent cells with DiO dye (Invitrogen; final concentration 1.9 μM), and then nonenzymatically detaching the cells with 0.5 mM EDTA and EGTA. Cells were counted with trypan blue staining to verify cell viability. To measure phagocytosis, 2.5×10^4 target cells were suspended in 25 ul phenol-free low-IgG RPMI media to which 25 ul of 100 nM anti-DNP antibody (rabbit polyclonal KLH IgG, Invitrogen-100× stock) containing media was added followed by the addition of 1 ul of ARM-U2 from 100×DMSO stocks or 6-ABT-4 from 100×DMSO stocks for compound out-competition experiments, followed by the addition of 50 ul of 10^5 U937 cells in the same RPMI Assay Media resulting in a final volume of 100 uL. This experimental setup yielded an effector-to-target ratio (E:T ratios) of 4:1. For out-competition studies with exogenous uPAR, 250 ul of A-172 target cells in assay media was added directly to lyophilized 100 ug uPAR (R@D systems) to yield an 8.4 uM stock uPAR concentration, this was then combined in the manner and order described above. Eppendorfs were centrifuged at 200 rcf for 2 min then incubated at 37° C. for 1 hour or at 4° C. for 1 hr in controls establishing real phagocytosis is indeed represented by double positives in flow cytometry. Phagocytosis was halted by placing tubes on ice. Flow cytometric measurements were then made using an Accuri C6 flow cytometer with forward scatter and side scatter gating parameters initially set collecting on live intact cells. The live cell population selected was further gated into four quadrants using dual FL-1 and FL-4 fluorescence enabling for the differentiation of effector only cells (top left quadrant-high FL-4), target only cells (bottom right quadrant-high FL-1 fluorescence), and double positive overlapping target and effector cells (top right quadrant-high FL-1 and FL-4 fluorescence). The upper right quadrant indicating the number of phagocytosed target cells was used to calculate the percent phagocytosis: % targets phagocytosed=[(double-positive cells)/(remaining target cells+double-positive cells)×100%]−background phagocytosis.
# [1] = tested on: IL-8 release by U937 cells; test: Inflammatory cytokine release ELISA; settings: A172 target cells plus anti-DNP antibodies, 50 nM or 1 μM, tested form: ammonium formate salt
# Procedure: Analysis of u937 secretion of 12 human inflammatory cytokines in the presence of anti-DNP antibodies and A172 target cells induced by ARM-U2 6-ABT-1 was carried out using the Multi-Analyte ELISArray Kit (MEH-004A, Qiagen). Sample preparation involved the immobilization of A172 target cells (approx. 1,000,000/3 ml T-flask) over the course of 24 hours at 37° C. followed by the addition of 1.5 ml phenol free RPMI assay media. 30 ul of 6-ABT-1 from 100×DMSO stocks or DMSO only was added (50 nM final 6-ABT-1 conc, 1% DMSO) followed by the addition of 30 ul anti-DNP antibody from 100× aqueous stocks (133 nM final concentration). 1.5 ml of IFN-gamma primed U937 cells suspended in phenol free RPMI assay media at a concentration of 2666.6 cells/ul, was then added and the plate incubated at 37° C. for 24 hr. Following incubation, the supernatant was collected, pelleted by centrifugation, and the supernatant collected and stored on ice. The ELISA plate pre-loaded with immobilized antibodies specific for each of the 12 cytokines tested was loaded with the cell supernatant collected, washed, and the bound cytokine detected all as described in the associated instruction manual available from Qiagen. The ELISA plate was read at an absorbance of 450 nm using a Perkin-Elmer Fluorescence plate reader with increases in absorbance at 450 nm proportional to bound cytokine. Results are show in FIG. 22.
# [2] = tested on: B16 melanoma tumors expressing human uPAR; test: B16 mouse melanoma allograft model expressing human uPAR; type: in vivo; settings: tested form: ammonium formate salt
smiles,measurement,setting,value
O=C1c2ccccc2-c2onc3c(N4CCC[C@H](C(=O)NCCCOCCOCCOCCCNc5ccc([N+](=O)[O-])cc5[N+](=O)[O-])C4)cc(Nc4ccc(S(=O)(=O)O)cc4S(=O)(=O)O)c1c23,ADCP efficacy at 4 degrees celcius,A172 glioblastoma cells; 4 °C,complete loss of efficacy
same,ADCP efficacy and potency compared to 1-ABT-1,"A172 glioblastoma cells; U937 effector cells, anti-DNP antibodies",significant increase in potency and efficacy
same,concentrations at which phagocytosis declines (prozone effect),A172 glioblastoma cells; downward slope of bell shaped curve,> 100 nM
same,ADCP with 6-ABT-4 competitor,A172 glioblastoma cells; out-competition with 6-ABT-4,disrupt phagocytosis
same,ADCP with exogenous uPAR,A172 glioblastoma cells; out-competition with exogenous uPAR,disrupt phagocytosis
same,IL-8 release by U937 cells,[1],higher release of IL-8
same,IL-8 release by U937 cells,[1]; listed as ARM-U2,Higher levels of IL-8 secretion
same,average tumor volume after 17 days,[2]; IP injections over 17 days,approximately 200 mm^3
same,mean survival,[2]; daily IP treatment,30 days
same,tumor growth inhibition (TGI),"[2]; daily IP, ARM-U2 20 mpk or 100 mpk, Dox 1 mpk, vs PBS",approximately 90%
same,efficacy of 100 mpk dose compared to 20 mpk,[2]; especially within the first 22 days,moderate decrease in efficacy
same,persistence of tumor regression after treatment cessation,"[2]; mouse, in vivo",14 days

# From patent US10633374B2, “Small molecule based antibody-recruiting compounds for cancer treatment” (YALE UNIVERSITY, priority 2015, dated 2020)
